From US20240166755A1, “CHIMERIC ANTIGEN RECEPTORS TARGETING CANCER” (University of Southern California, priority 2016, published 2024)

Legend:
[1] = target: T1, extracellular domain (ECD) of human MPL (Homo sapiens, UniProt P40238); assay: NLuc assay to detect CAR: binding of MPL-ECD-GGSG-NLuc-AcV5 supernatant to CAR-expressing cells
T1 construct: made in house; host or cells: 293FT cells, conditioned medium used unpurified

[2] = target: extracellular domain (ECD) of human CD19 (Homo sapiens, UniProt P15391); assay: NLuc assay to detect CAR: binding of FLAG-CD19-ECD-GGSG-NLuc-AcV5 supernatant to CAR-expressing cells; settings: transiently transfected 293FT cells
From the text: A frequent problem in the field of chimeric antigen receptors is lack of a sensitive and specific assay that can detect cells that express chimeric antigen receptors. To detect the expression of CAR targeting CD19 and MPL, we fused the extracellular domains (ECD) of human CD19 and human MPL, including their signal peptides, in frame with nucleotide sequence encoding a Gly-Gly-Ser-Gly linker, NLuc (without a secretory signal) and an AcV5 epitope tag. In the case of CD19 construct, a FLAG tag was inserted between the signal peptide and the beginning of the extracellular domain. The whole cassette was cloned downstream of the human EF1α promoter into the lentiviral vector pLenti-EF1 to make constructs pLenti-EF1-FLAG-CD19-ECD-GGSG-NLuc-AcV5 and pLenti-EF1-MPL-ECD-GGSG-NLuc-AcV5, respectively. The nucleic acid sequences of the insert fragments are provided in SEQ ID NO: 926 and SEQ ID NO: 925, respectively. The protein sequences of the insert fragments are provided in SEQ ID NO: 2671 and SEQ ID NO: 2670, respectively. The constructs were transfected into 293FT cells by calcium phosphate co-precipitation method. Approximately 20 h post-transfection, the cell culture media was replaced with fresh medium. The conditioned media containing the secreted FLAG-CD19-ECD-GGSG-NLuc-AcV5 (also referred to as CD19-GGSG-NLuc-AcV5) and MPL-ECD-GGSG-NLuc-AcV5 (also referred to as MPL-GGSG-NLuc-AcV5) proteins was collected 48-72 h later.
Next day morning, approximately 18 hours post-transfection, cells were collected by pipetting up and down in 1.5 ml tubes. The tubes were spun down at 1500 RPM for 5 minutes. Then the cells were washed once with wash buffer (1% FBS in PBS), followed by incubation with 1001 of indicated secretory forms of GGS NLuc supernatants. The cells were incubated at 4° C. for 1 hour.
After the incubation, cells were washed 5 times with wash buffer (1 ml each wash). Finally the pellet was resuspended in 200 μl wash buffer. Resuspended cells were placed in a 384 well plate in triplicate (25 μl each). Luciferase activity was measured using a BioTek synergy H4 plate reader after addition of NLuc assay buffer (Promega) containing native coelenterazine (25 μl each well) directly to each well (one at a time).
Jurkat-NFAT-Luc cells were stably transduced with the different CD19 targeted CAR constructs and selected in puromycin. Cells were incubated with FLAG-CD19-ECD-GGSG-NLuc-AcV5 [SEQ ID NO:2671] supernatant and after extensive washes assayed for NLuc activity essentially as described previously.
Purified T cells were stably transduced with the different CD19-targeted CAR constructs and selected in puromycin. Cells were incubated with FLAG-CD19-ECD-GGSG-NLuc-AcV5 [SEQ ID NO:2671] supernatant and after extensive washes assayed for NLuc activity essentially as described previously.

HEL cells = assay: ELISA of TNFα in supernatant of CAR-T cells co-cultured with HEL cells; assay type: cell-based, human; settings: co-culture about 96 hours, versus uninfected T cells

B1: CD8SP-MPL-161-(vL-vH)-Myc-BBz-T2A-PAC(021015-R07): CAR targeting MPL: 161 scFv, Myc tag, CD8 hinge/TM, 41BB, CD3z, T2A, puromycin resistance (protein)
chain: MALPVTALLLPLALLLHAARPDDIQMTQSSSSFSVSLGDRVTITCMASEDIYIRLAWYQQKPGNAPRLLISAATSLETGVPSRFSGSGSGKDYTLSITSLQTEDVGTYYCQQYWSSPWTFGGGTKLEINGGGGSGGGGSGGGGSDVQLQESGPGLVKPSQSLSLTCTVTGYSITSDYTWNWIRQFPGNKLEWMGYITYSGSTSYNPSLKSRNSITRDTSKNQFFLQLNSVTTEDTATYYCARLGRRYTMDYWGQGTSVTVSSTREQKLISEEDLAKPTTTPAPRPPTPAPTIASQPLSLRPEACRPAAGGAVHTRGLDFACDIYIWAPLAGTCGVLLLSLVITLYCKRGRKKLLYIFKQPFMRPVQTTQEEDGCSCRFPEEEEGGCELRVKFSRSADAPAYQQGQNQLYNELNLGRREEYDVLDKRRGRDPEMGGKPRRKNPQEGLYNELQKDKMAEAYSEIGMKGERRRGKGHDGLYQGLSTATKDTYDALHMQALPPRSSGSGEGRGSLLTCGDVEENPGPHMTEYKPTVRLATRDDVPRAVRTLAAAFADYPATRHTVDPDRHIERVTELQELFLTRVGLDIGKVWVADDGAAVAVWTTPESVEAGAVFAEIGPRMAELSGSRLAAQQQMEGLLAPHRPKEPAWFLATVGVSPDHQGKGLGSAVVLPGVEAAERAGVPAFLETSAPRNLPFYERLGFTVTADVEVPEGPRTWCMTRKPGA
modifications: listed as DNA
notes: CAR targeting MPL: 161 scFv, Myc tag, CD8 hinge/TM, 41BB, CD3z, T2A, puromycin resistance
binding to MPL-GGSG-NLuc AcV5 (NLuc assay) ([1]; T cells expressing the CAR): strong binding
binding to MPL-ECD-GGSG-NLuc-AcV5 (NLuc assay) ([1]; transiently transfected 293FT cells): strong binding
binding to FLAG-CD19-ECD-GGSG-NLuc-AcV5 (NLuc assay) [2]: very little binding
secretion of TNFα (HEL cells): increased secretion of TNFα
